The source of these data is ChEMBL document CHEMBL1158171, “Bioactivities of a series of phosphodiesterase type 5 (PDE-5) inhibitors as modelled by MIA-QSAR” (Eur J Med Chem, 2008).

For orientation: pIC50 means −log10 of the IC50, conventionally taken in molar units. Low values mean a large IC50, high ones a small IC50.

The assay addresses cGMP-specific 3',5'-cyclic phosphodiesterase (Homo sapiens, UniProt O76074).

As for `CCN1C(=O)C2C(N=C(N=[N+]=[N-])N2Cc2ccc(O)cc2)N2C1=N[C@@H]1CCC[C@@H]12` (stereo partly specified), the negative logarithm of the IC50 (pIC50) was determined as 9.21.
